Experimental data reported in patent US8426684B2 (Washington State University Research Foundation, priority 2004, dated 2013).

System: NADPH
Experiment: purified protein, by the assay type
Details: other: cofactor, menthone as substrate, reductase expressed from pSBET, pH 7, 31° C., means±standard error

Substance “menthone: (3R)-(−)-menthol reductase (SEQ ID NO:2) (Mentha x piperita)” has a Km of 0.12 ± 0.04 µM.
